System: Porcine buccal mucosa
Test: Loxapine diffusion through Porcine buccal mucosa (Franz cell)
Conditions: penetration enhancer in loxapine oral film; permeation through the mucosa
Description: FIG. 1 graphically depicts 1 oxapine film diffusion through Porcine buccal mucosa (48-hrs-old unfrozen fresh mucosa) (Franz cell 1.76 cm2; 37° C.); saliva pH 6.8.
FIG. 2 graphically depicts 1 oxapine film diffusion through Porcine buccal mucosa (26-hrs-old unfrozen fresh mucosa) (Franz cell 1.76 cm2; 37° C.); saliva pH 6.8.
FIG. 3 graphically depicts 1 oxapine Solutions-diffusion through Porcine buccal mucosa (fresh mucosa kept at 4C for 48 hours) (Franz cell 1.76 cm2; 37° C.); saliva pH 6.8.
These penetration enhancers include sulphoxides (dimethylsulphoxide, decylmethyl sulfoxide), azones (laurocapram), pyrrolidones (2pyrrolidone, 2P), alcohols/alkanols (ethanol or decanol), glycols (propylene glycol), surfactants (anionic, sodium lauryl sulfate, sodium decyl sulfate), (Nonionic, Tween, PLE), (Cationic, chitosan, cetylpyridinium chloride), terpenes (1,8-cineole, menthol, and menthone, D-limonene), fatty acids (oleic acid, sodium caprate), and bile salts (sodium deoxycholate, sodium deoxyglycocholate).

D-a-Tocopherol Vitamin E 1000 succinate
Effect on loxapine absorption/permeation: positif effect (+)

From patent US20230248660A1, “METHOD OF PREPARING LOXAPINE FILM ORAL DOSAGE FORM” (Intelgenx Corp., priority 2016, published 2023)
